Antibody variant affinities, Ab-14 light chain, assay B

From the AlphaSeq antibody data of Li et al. 2023 (doi:10.1038/s41467-023-39022-2), copy in the FLAb collection.

Binding partner: SARS-CoV-2 spike HR2 peptide, sequence PDVDLGDISGINAS.

Parent scFv Ab-14: VH joined to VL by a (GGGGS)3 linker. Changes lie in the light chain CDRs alone.
VH: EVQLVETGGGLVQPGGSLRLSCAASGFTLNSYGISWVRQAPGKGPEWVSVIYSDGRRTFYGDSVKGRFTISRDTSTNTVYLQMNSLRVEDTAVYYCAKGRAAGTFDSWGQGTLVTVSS
VL: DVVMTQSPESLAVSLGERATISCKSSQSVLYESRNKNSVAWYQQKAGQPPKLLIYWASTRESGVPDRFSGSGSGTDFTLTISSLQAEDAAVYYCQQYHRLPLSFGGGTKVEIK

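The starting antibody came from a phage panning campaign against this peptide. This is the validation round: designs drawn from the data on random variants, tested in the same kind of assay. Several design methods are mixed in this list. The assay is AlphaSeq: two haploid yeast populations carry antibody and antigen on their surface. Mating (16 h, 30 °C) was followed by selection of diploids and sequencing of their barcodes. Each replicate has its own calibration line, from reference interactions of the BCL2 family. Each pool was mated in six replicate cultures.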

The parent's light chain CDRs are KSSQSVLYESRNKNSVA, WASTRES, QQYHRLPLS; each variant's own CDRs replace them letter for letter. This list holds designs with more than six substitutions. Each Kd is an estimate from the mating assay, the geometric mean of the replicates in which the pair was seen; lower is stronger. Where no diploid with the target was found in any replicate, the entry reads "no signal": below detection, most likely a poor binder, though not proof of it. Background: pairings of all light chain designs with three empty control strains gave a value in 4% of cases (median 430 nM, 5th percentile 38 nM). Values in that range, when seen in few replicates, are hard to tell from nonspecific mating. The range of this assay differs from that of the first round, and the authors advise against merging the two. Of ten entries with the parent sequence, four were seen in most replicates (averages 2.2 nM to 240 nM), three in one and three in none, so single entries are noisy. The authors' rule: three or more of the six replicates give a measured affinity, fewer mean a poor binder.

| CDR-L1 | CDR-L2 | CDR-L3 | Kd (apparent) | seen in |
|---|---|---|---|---|
| QLSMMEQHMGDRMHNVA | DTNQAKM | QDYFRLPLM | no signal | 0/6 |
| RISVFQNMSTQGNNSIA | GAEQKVH | QQYMRLPLY | 2.7 nM | 6/6 |
| QVTAFYEHLKDQQQAMA | NATMRDQ | QQYERLPLS | 3.2 nM | 6/6 |
| KLTMISGLEKVSKNNVA | EMETRER | QQYNRLPLS | 540 pM | 6/6 |
| KLSMSYRYESENKNSIA | ELTTRMS | QQYHRLPLS | 6.9 nM | 6/6 |
| KVYWSVDYEDRNKNSVA | HASRRES | QQYHRLPLS | 4.3 nM | 6/6 |
| SITVIDNYGSQLENNIA | QGVCKAE | QQYIRLPLI | 13 nM | 1/6 |
| NFGQKMALYTGQRQQIA | DSTVRAD | QQYSRLPLT | 1.9 nM | 6/6 |
| TLYGLSVSMSKNVNSVA | EMTTREQ | QQYDRLPLV | 4.0 nM | 6/6 |
| KISFWDYRGSQWHNNIA | EGSQRAE | QQYSRLPLN | 5.1 nM | 6/6 |
| KLSQSVEVLSRNDNSVA | EASTREM | QQYHRLPLS | 1.7 nM | 6/6 |
| AVSQSTLYEDGNSNSVA | NASVRES | QQYHRLPLS | 1.2 nM | 6/6 |
| SISMLLNFESKRGNNVA | QMETRVN | QQYDRLPLS | 3.7 nM | 6/6 |
| KLEQSTSYESRMCNSVA | NASVRES | QQYHRLPLS | 4.7 nM | 6/6 |
| TISQSAQQESHNKNSVA | DLNVRGS | QQYDRLPLS | 58 nM | 6/6 |
| MLTMFANENQGWSNNIA | DTNNLNT | QQYSRLPFM | 8.5 nM | 6/6 |
| MISQLYNMGQFAINSVA | QASVRNE | QQYDRLPLE | 19 nM | 1/6 |
| HISQSFMTESVWRNNIA | HQSTRET | QQYDRLPFS | 2.1 nM | 6/6 |
| MMSSLMGYESRHINNVA | QTSTRED | QQYDRLPLI | 1.3 nM | 6/6 |
| KLSMETATLTGHMDSIA | HVEIRWA | QQYHKLPLI | 110 nM | 2/6 |
| KVSEFMKGLMMRTDSIA | DNTTRNS | QQYDRLPLS | 290 nM | 1/6 |
| KLVQPDDNDNQDMRAVA | DENTLGQ | QQYHRLPLG | 130 nM | 3/6 |
| KCDQWVFYGDRNKNSVA | NASTREQ | QQYHRLPLS | 2.4 nM | 6/6 |
| KLSMVTNSEHKVKNSIA | EMVTREK | QQYDRLPLI | 4.7 nM | 6/6 |
| QVTAFNEHLKDQQQAMA | NATMRDQ | QQYERLPLS | 8.9 nM | 6/6 |
| KLSSVTGHMSMAKNNVA | EMETREN | QQYNRLPLS | 120 nM | 5/6 |
| KLSNWQFDSYGNKESVA | ENEAVSN | QQYSLLPLS | 970 nM | 2/6 |
| TISELYNQALGMRNNVA | NNQTRED | QQYDRLPLS | 3.9 µM | 5/6 |
| SITQLTAYGSRNKNSVA | QMSTRES | QQYDRLPLS | 17 nM | 6/6 |
| KLGQSVAMTSRMKNNVA | DLNERER | QQYDRLPLS | 2.4 nM | 1/6 |
| IVSQLMLWGYKHKNSIA | EAELRLN | QQYDRLPLI | 150 nM | 5/6 |
| TISQITSLFSQTINNVA | EVSTREA | QQYDRLPLA | 3.5 nM | 6/6 |
| KISMLLNMTFETSNNVA | EMATREK | QQYNRLPLS | 13 nM | 6/6 |
| KLSMSVRMESFVKDNVA | ENSTREA | QDYHRLPLS | 71 nM | 3/6 |
| KLIQSVAMSSRVKDSIA | DNSTRES | QQYHRLPLS | 69 nM | 6/6 |
| IITQSVMSESKNKRNVA | NTSEREP | QQYDRLPLI | 3.1 nM | 6/6 |
| KSSLHDLDESRNEPSVA | WASTRES | QQVHRDPLS | no signal | 0/6 |
| KISQSILFMSGMKNAIA | QMEMREE | QQYHRLPLS | no signal | 0/6 |
| KLSMVTGHMSVAKNNVA | EMETREN | QQYDRLPLS | 1.5 nM | 6/6 |
| HLSQSVQQESRNKNSVA | EASQRER | QQYHRLPLS | 35 nM | 6/6 |
| ALELEEMQMMKDINSIA | NTEYKTR | QQYFRLPIS | 19 nM | 6/6 |
| KLANSTRTNLRGTNAVA | QGSNRAM | QQYQRLPFL | 8.2 nM | 6/6 |
| MMSQVTGMGQRHYNNVA | QTSTREP | QQYDRLPLI | 2.2 nM | 6/6 |
| RLNVFQYAITGDNYAIA | NARETLM | QQYMRLPLT | 8.2 nM | 6/6 |
| HLNGEWNHGANRDNNIA | EAQLVAA | QDYFRLPFI | 8.4 nM | 6/6 |
| QMTESDHGHQAGVGSIA | DATESME | QQYMHLPLS | 11 nM | 6/6 |
| KLSLMYQHTSRNKNNIA | ERSTREE | QQYHHLPLS | 9.2 nM | 4/6 |
| NLTTGYEQGALNTDNIA | HGNMTEA | QQYYRLPLS | 1.4 nM | 6/6 |
| KLQWQQYGENQQEAAIA | NETTVAQ | QQYSKLPLT | 12 nM | 6/6 |
| HLGLVTMLESTVRNSVA | NNSTREE | QQYDRLPLS | 150 nM | 3/6 |
| HVSEMIFAQMKQRNSVA | ENSTREA | QQYDRLPLS | 2.1 nM | 6/6 |
| SLGLSTMLEEYVRNSVA | NNSTREK | QQYDRLPLS | 2.4 µM | 1/6 |
| TLTQSALMESHNKNSVA | DLSTRGS | QQYHRLPLS | 1.1 nM | 6/6 |
| KLSVSTSYLSVNKNSVA | EMSTREN | QQYDRLPLS | 1.9 nM | 6/6 |
| TISDLMGHVMKQTNNVA | DMDTRGD | QQYNRLPLS | 1.4 nM | 6/6 |
| RMQEDLQLGTNIGNNIA | EHQTVFD | QQYAHLPLQ | 6.2 nM | 6/6 |
| KMSQSVLMGGRNDNSVA | EASTRCS | QQYHRLPLS | 750 pM | 6/6 |
| KISQMTRVGSTHSNSIA | EEATRAK | QQYHRLPLF | 17 nM | 6/6 |
| KLQNFSQEHNGMWNNIA | DMTMKHT | QQYNRLPLV | 13 nM | 6/6 |
| KVSQSNPYESRNAQSVA | NASQRES | QQYHRLPLS | 1.3 nM | 6/6 |
| KLSVMASYLSVNKNSVA | EMTTREN | QQYDRLPLS | 27 nM | 6/6 |
| KITYMWTFESHNRNNIA | EESTRED | QSYHRLPLS | 64 nM | 6/6 |
| IVSQLMLWGMHAKNSIA | EAEMRTN | QQYERLPLF | 100 nM | 1/6 |
| KLMWSMQYESRNQNSVA | SASYRES | QQYHRLPLS | 21 nM | 6/6 |
| KLSNVTGHMSVSKNNVA | EMETRVN | QQYDRLPLS | 6.3 nM | 6/6 |
| KLSYSFMMLSRNDNSVA | DASTRES | QQYHRLPLS | 740 pM | 6/6 |
| KLLQNVRTEGRNRNNVA | HMDMRED | QQYWRLPLS | 6.2 nM | 6/6 |
| MMSQVTGLGTRHRNNVA | QTSTRED | QQYDRLPLI | 4.4 nM | 6/6 |
| KMTKAEQGIGSHQQNIA | DSNKITD | QQYYRLPLS | 1.2 nM | 6/6 |
| NVGQSMDGEYRNKNSVA | HQSTRED | QHYHRLPLS | 61 nM | 6/6 |
| KAQQSQLYESRNQNSVA | NASQRLS | QQYHRLPLS | 720 pM | 6/6 |
| QLFFNDFQYDIESQNIA | QASLRYV | QQYARLPLV | 23 nM | 6/6 |